The entries are a selection whose mix differs from that of the whole data set. The source made the active and inactive calls. No stated cut-off is given here; in the data, active means inhibition above about 38%; inactive means the rest.
biological target: G-protein coupled receptor 183 (Homo sapiens) (UniProt P32249); assay: EBI2 receptor antagonists, beta-arrestin recruitment, primary screen, cell-based, luminescence, 7a,25-OHC stimulation, uHTS (AID 651636); details: 7a,25-OHC stimulated, at 5 µM, active compounds read high;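 further: enzyme fragment complementation signal reports receptor beta-arrestin coupling in cells; 0% = agonist plus DMSO wells and 100% = wells without agonist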

Protein sequences, listed by entry. Tags and fused reporters are not part of them.
UniProt P32249, whole entry, looked up: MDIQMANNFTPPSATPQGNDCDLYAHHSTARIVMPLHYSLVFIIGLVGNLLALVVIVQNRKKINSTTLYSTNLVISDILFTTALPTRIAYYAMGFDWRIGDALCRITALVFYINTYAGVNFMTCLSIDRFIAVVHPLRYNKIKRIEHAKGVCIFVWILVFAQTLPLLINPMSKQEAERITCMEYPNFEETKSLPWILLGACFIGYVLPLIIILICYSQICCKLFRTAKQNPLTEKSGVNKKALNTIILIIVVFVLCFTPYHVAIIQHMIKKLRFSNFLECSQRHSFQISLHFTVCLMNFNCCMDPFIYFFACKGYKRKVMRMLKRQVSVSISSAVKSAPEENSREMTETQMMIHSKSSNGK

Question: How did the inhibition turn out when `Cc1ccc(OCC(=O)OC2CN3CCC2CC3)cc1` (centres undefined) was run?
Answer: inactive: 4.1%

Question: `O=[As](O)(c1cccs1)c1cccs1` was tested. Which inhibition did it give?
Answer: inactive: -4.25%

Question: For `NS(=O)(=O)c1cccc(NC(=O)COC(=O)C(O)(c2ccccc2)c2ccccc2)c1`, which inhibition is on record?
Answer: inactive: -4.63%

Question: Which inhibition does the source give for `O=P1(Nc2ccc(Br)cn2)COc2ccccc2OC1` here?
Answer: inactive: 2.56%

Question: With `Nc1cccc([As](=O)(O)c2ccccc2)c1` as the molecule, how does the inhibition read?
Answer: inactive: -4.99%

Question: Which inhibition does the source give for `O=P1(Nc2ncccn2)COc2ccccc2OC1` here?
Answer: inactive: -1.93%

Question: `Cc1ccc(S(=O)(=O)N(CCCN)CCCc2c(C)nc(N)[nH]c2=O)cc1` was tested. Which inhibition did it give?
Answer: inactive: 1.56%

Question: `CCCC1OP(=O)(Nc2ccccc2)OCC1CC` (centres undefined) was tested. Which inhibition did it give?
Answer: inactive: -1.12%

Question: `O=C(/C=C/c1ccccc1)OC1CN2CCC1CC2` (centres undefined) was tested. Which inhibition did it give?
Answer: inactive: 19.3%

Question: `CN(C)C1(CNC(=O)c2ccc(S(C)(=O)=O)cc2)CCCCC1` was tested. Which inhibition did it give?
Answer: inactive: -3.71%

Question: For `Cc1ccc(C(=O)OC2CN3CCC2CC3)cc1` (centres undefined), which inhibition is on record?
Answer: inactive: -15%

Question: With `CC1CCC(C(C)C)C(OP(=O)(Nc2ccccn2)c2ccccc2)C1` (centres undefined) as the molecule, how does the inhibition read?
Answer: inactive: 14.7%

Question: `Cc1nn(-c2ccccc2)c2c1P(=O)(N1CCOCC1)N(C)C(c1ccccc1)=N2` (centres undefined) was tested. Which inhibition did it give?
Answer: inactive: -7.87%

Question: Which inhibition does the source give for `CC1(CBr)Cn2c(nc3ccccc3c2=O)S1` (centres undefined) here?
Answer: inactive: -3.74%

Question: Which inhibition does the source give for `CN(C(=O)Cc1ccc(Cl)c(Cl)c1)[C@@H]1CCCC[C@H]1N1CCCC1` here?
Answer: inactive: 3.19%

Question: With `CC(C)/C=N\N=C(\N)N[N+](=O)[O-]` as the molecule, how does the inhibition read?
Answer: inactive: -5.68%

Question: Which inhibition does the source give for `COc1ccccc1CNC(=O)COC(=O)C(O)(c1ccccc1)c1ccccc1` here?
Answer: inactive: 0.45%

Question: `CC(C)(C)C(=O)NC(Sc1ncccn1)C(Cl)(Cl)Cl` (centres undefined) was tested. Which inhibition did it give?
Answer: inactive: -10.2%

Question: With `Clc1n[nH]nc1-c1nn[nH][15n]1` as the molecule, how does the inhibition read?
Answer: inactive: -11.8%

Question: How did the inhibition turn out when `O=P1(N(CCCl)CCCl)NCCC(C(F)(F)F)O1` (centres undefined) was run?
Answer: inactive: -4.77%

Question: For `CCOP(=O)(Nc1ccc(C)cn1)OCC`, which inhibition is on record?
Answer: inactive: -2.15%

Question: Which inhibition does the source give for `CN(CCCl)Cc1cc(Cl)c(NC2=NCCN2)c(Cl)c1` here?
Answer: inactive: 4.51%

Question: For `CCOP(=O)(NC(=NC(C)c1ccccc1)NC(C)c1ccccc1)OCC` (centres undefined), which inhibition is on record?
Answer: inactive: -4.4%

Question: For `CCC1=CC2Cc3nc4ccc(Cl)cc4c(N)c3C(C1)C2` (centres undefined), which inhibition is on record?
Answer: inactive: -7.52%

Question: With `O=P1(Nc2ccccn2)COc2ccccc2OC1` as the molecule, how does the inhibition read?
Answer: inactive: -8.06%

Question: With `CCOP(=O)(Nc1cccc2ccccc12)OCC` as the molecule, how does the inhibition read?
Answer: inactive: -11.8%

Question: How did the inhibition turn out when `COc1cc(C2NCCC3(OCCO3)C2(C)C)cc(OC)c1OC` (centres undefined) was run?
Answer: inactive: -8.31%

Question: `CCCOP(=S)(Nc1nc(N)cc(=O)[nH]1)OCCC` was tested. Which inhibition did it give?
Answer: inactive: -1.49%

Question: For `Cc1ccc(NCCc2c([N+](=O)[O-])cc([N+](=O)[O-])cc2[N+](=O)[O-])cc1`, which inhibition is on record?
Answer: inactive: -0.134%

— PubChem BioAssay AID651636 (Sanford-Burnham Center for Chemical Genomics, 2012)
